## AlphaSeq binding of Ab-14 heavy chain variants to a spike HR2 peptide

Reference: Engelhart et al. 2022, doi:10.1038/s41597-022-01779-4. File: FLAb, binding data.

Binding partner: SARS-CoV-2 spike HR2 peptide, sequence PDVDLGDISGINAS.

Each scFv is VH, a 15-residue (Gly4Ser)3 linker, VL, as in the parent Ab-14, and differs from it in the CDRs of the heavy chain only.
VH: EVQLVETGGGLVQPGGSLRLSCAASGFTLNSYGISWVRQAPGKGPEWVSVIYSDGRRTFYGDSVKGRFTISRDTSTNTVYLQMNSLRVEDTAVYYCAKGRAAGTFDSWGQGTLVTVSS
VL: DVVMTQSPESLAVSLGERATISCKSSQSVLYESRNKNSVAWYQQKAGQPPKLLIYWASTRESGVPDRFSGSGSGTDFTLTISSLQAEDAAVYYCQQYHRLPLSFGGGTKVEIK

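The starting antibody came from a phage panning campaign against this peptide. Library AAYL49 holds single substitutions and randomly drawn double and triple substitutions in the CDRs. Affinity was read by AlphaSeq, a pooled yeast mating assay with surface-displayed partners. Mating (16 h, 30 °C) was followed by selection of diploids and sequencing of their barcodes. Each replicate has its own calibration line, from reference interactions of the BCL2 family. The assay was run in three technical replicates.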

Changes read parent residue, position, new residue, counted from the first residue of the VH shown.
Values are log10 of the apparent Kd in nM; lower means stronger binding.
Where no diploid with the target was found in that replicate, the entry reads "nd": below detection, most likely a poor binder, though not proof of it.
For reference, the parent read 0.65 as the reference entry and 4.11 (one replicate of three) as a member of this library.

With G61K the result was 1.72, 1.59, 2.05 (controls 2 of 9).
With G33E+Y60E+S107W the result was nd, nd, nd (controls 0 of 9).
With I51Y+G55I+G103H the result was nd, nd, nd (controls 0 of 9).
With S31T+G33P+A101R the result was nd, nd, 4.65 (controls 1 of 9).
With S31D+Y32P+V50W the result was nd, nd, nd (controls 1 of 9).
With S63H+A101T the result was 0.86, 1.11, 0.83 (controls 1 of 9).
With I34R+I51T+D54G the result was nd, 2.87, nd (controls 3 of 9).
With G99S+A102W+G103T the result was 0.91, 0.93, 0.93 (controls 0 of 9).
With Y32G+S35F+R56N the result was 3.61, nd, nd (controls 0 of 9).
With N30Q+S35Y+S63N the result was nd, nd, nd (controls 0 of 9).
With G55D+A102P+S107I the result was 3.88, nd, nd (controls 0 of 9).
With L29A+G99T+S107G the result was nd, nd, nd (controls 0 of 9).
With N30A+A102C+F105K the result was nd, nd, nd (controls 0 of 9).
With I51L+R56K+F105W the result was 1.12, 1.09, 1.22 (controls 2 of 9).
With R57D+S63W the result was nd, nd, nd (controls 1 of 9).
With G55V+Y60H+K65S the result was nd, nd, nd (controls 0 of 9).
With I34G+G61D the result was nd, nd, nd (controls 2 of 9).
With R56G+V64K+S107V the result was nd, nd, 5.46 (controls 2 of 9).
With G61I+G99H+A101T the result was nd, nd, nd (controls 0 of 9).
With V64Y+D106W the result was nd, 2.47, 3.41 (controls 4 of 9).
With V64K+A101C+F105K the result was nd, nd, nd (controls 1 of 9).
With L29Q+G55N+D62R the result was nd, 3.39, nd (controls 4 of 9).
With S31L+Y52D+D62C the result was nd, nd, nd (controls 0 of 9).
With T28L+R56W+K65M the result was 2.17, 2.40, 2.90 (controls 0 of 9).
With S31C+Y52M+F59T the result was nd, nd, 3.14 (controls 2 of 9).
With L29D+D54Q+R100W the result was nd, nd, nd (controls 1 of 9).
With Y60M+A102S+G103V the result was nd, 4.64, nd (controls 5 of 9).
With A102L+D106I+S107F the result was 3.62, 2.78, 4.08 (controls 0 of 9).
With N30H+G33W+I34T the result was nd, 3.76, nd (controls 0 of 9).
With Y60K+D62P+S107N the result was 4.71, nd, nd (controls 0 of 9).
With I34V+S53Y+G61V the result was 6.05, nd, nd (controls 5 of 9).
With N30G+K65C+G99R the result was 3.00, 3.15, 2.86 (controls 5 of 9).
With G33V+Y52Q+R56I the result was nd, nd, 4.18 (controls 2 of 9).
With R56H+K65E+D106T the result was nd, nd, nd (controls 0 of 9).
With G33S+F59R+V64Y the result was nd, nd, 5.24 (controls 5 of 9).

5 of these entries, quoted again:

{"changes": "S31L+Y52D+D62C", "log10 Kd (nM) by replicate": "nd, nd, nd", "control signals": "0 of 9"}
{"changes": "Y60M+A102S+G103V", "log10 Kd (nM) by replicate": "nd, 4.64, nd", "control signals": "5 of 9"}
{"changes": "N30A+A102C+F105K", "log10 Kd (nM) by replicate": "nd, nd, nd", "control signals": "0 of 9"}
{"changes": "I51L+R56K+F105W", "log10 Kd (nM) by replicate": "1.12, 1.09, 1.22", "control signals": "2 of 9"}
{"changes": "G99S+A102W+G103T", "log10 Kd (nM) by replicate": "0.91, 0.93, 0.93", "control signals": "0 of 9"}

Nonspecific signal, from three strains lacking the peptide, appeared in 15% of pairings of library AAYL49, centred on 4.06 (5% of these signals below 2.83); values are not corrected for it. Also given: how often the same scFv was detected with the empty control strains.